Format in all cases: cell-based
Settings in all cases: continuous exposure

For one experiment, the system named is SK-BR-3 cells. The experiment can be described thus: CellTiter-Glo in vitro cell proliferation assay, SK-BR-3. The procedure: (§1) Generally, the cytotoxic or cytostatic activity of an antibody-drug conjugate (ADC) is measured by: exposing mammalian cells having tumor-associated antigens or receptor proteins to the antibody of the ADC in a cell culture medium; culturing the cells for a period from about 6 hours to about 5 days; and measuring cell viability. Cell-based in vitro assays may be used to measure viability, i.e. proliferation (IC50), cytotoxicity (EC50), and induction of apoptosis (caspase activation) of the ADC. […] This cell proliferation assay determines the number of viable cells in culture based on quantitation of the ATP present, an indicator of metabolically active cells (Crouch et al (1993) J. Immunol. Meth. 160:81-88; U.S. Pat. No. 6,602,677). […]
(§2) The in vitro potency of antibody-drug conjugates was measured by a cell proliferation assay (FIGS. 8-29). […] This assay determines the number of viable cells in culture based on quantitation of the ATP present, an indicator of metabolically active cells (Crouch et al (1993) J. Immunol. Meth. 160:81-88; U.S. Pat. No. 6,602,677). […]
(§3) The homogeneous “add-mix-measure” format results in cell lysis and generation of a luminescent signal proportional to the amount of ATP present. […] Viable cells are reflected in relative luminescence units (RLU). Data can be recorded by luminometer or CCD camera imaging device. The luminescence output is presented as RLU, measured over time. […]

In experiment [1] the test system is doxorubicin-resistant (DoxRes) HER2 cells. The experiment can be described thus: CellTiter-Glo in vitro cell proliferation assay, doxorubicin-resistant HER2.
From the text: Cell-based in vitro assays may be used to measure viability, i.e. proliferation (IC50), cytotoxicity (EC50), and induction of apoptosis (caspase activation) of the ADC. The CellTiter-Glo® Luminescent Cell Viability Assay is a commercially available (Promega Corp., Madison, Wis.), homogeneous assay method based on the recombinant expression of Coleoptera luciferase (U.S. Pat. Nos. 5,583,024; 5,674,713; 5,700,670). This cell proliferation assay determines the number of viable cells in culture based on quantitation of the ATP present, an indicator of metabolically active cells (Crouch et al (1993) J. Immunol. Meth. 160:81-88; U.S. Pat. No. 6,602,677). […]
as §2, §3

A further experiment has as its system BT-474 cells. The experiment can be described thus: CellTiter-Glo in vitro cell proliferation assay, BT-474. The method, then:
as §1, §2, §3

Entries after “also recorded” stand apart in the source; their conditions may differ.

Regarding “trastuzumab: humanized anti-ErbB2 antibody huMAb4D5-8 (HERCEPTIN®, trastuzumab)”, the “SK-BR-3 in vitro cell viability at 3 days, anti-proliferative activity in words” value in the experiment with SK-BR-3 cells was “modestly inhibits the growth”. Besides, the “DoxRes HER2 in vitro cell viability at 3 days, anti-proliferative activity in words” value in experiment [1] is reported as “minimal activity; also recorded: no effect”. The “BT-474 in vitro cell viability at 3 days, anti-proliferative activity in words” value in the experiment with BT-474 cells is given as “modestly inhibits the growth”.

(Values after patent publication US9695240B2, “Anthracycline derivative conjugates, process for their preparation and their use as antitumor compounds” (Genentech, Inc., priority 2008, dated 2017).)
